# Experimental data: patent US20250129135A1, “Multi-Agonist and Use Thereof” (priority 2021, published 2025)
# Sequences of proteins named here, by UniProt entry; tags and fusion partners are left off. Residues count along the entry.
# UniProt P47871, 26-477: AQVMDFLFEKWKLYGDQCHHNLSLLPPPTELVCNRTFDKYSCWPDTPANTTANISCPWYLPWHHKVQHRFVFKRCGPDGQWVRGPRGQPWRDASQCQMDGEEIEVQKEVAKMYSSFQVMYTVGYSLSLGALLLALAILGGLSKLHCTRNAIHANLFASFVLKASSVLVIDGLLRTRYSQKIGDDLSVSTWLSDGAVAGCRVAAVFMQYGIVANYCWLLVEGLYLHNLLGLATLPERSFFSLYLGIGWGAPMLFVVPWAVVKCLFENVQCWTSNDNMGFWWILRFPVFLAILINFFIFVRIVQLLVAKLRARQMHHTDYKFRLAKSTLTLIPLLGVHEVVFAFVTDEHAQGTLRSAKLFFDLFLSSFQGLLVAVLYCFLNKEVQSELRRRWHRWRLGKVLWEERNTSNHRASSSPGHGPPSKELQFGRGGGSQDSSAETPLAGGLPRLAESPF
# UniProt P43220, 24-463: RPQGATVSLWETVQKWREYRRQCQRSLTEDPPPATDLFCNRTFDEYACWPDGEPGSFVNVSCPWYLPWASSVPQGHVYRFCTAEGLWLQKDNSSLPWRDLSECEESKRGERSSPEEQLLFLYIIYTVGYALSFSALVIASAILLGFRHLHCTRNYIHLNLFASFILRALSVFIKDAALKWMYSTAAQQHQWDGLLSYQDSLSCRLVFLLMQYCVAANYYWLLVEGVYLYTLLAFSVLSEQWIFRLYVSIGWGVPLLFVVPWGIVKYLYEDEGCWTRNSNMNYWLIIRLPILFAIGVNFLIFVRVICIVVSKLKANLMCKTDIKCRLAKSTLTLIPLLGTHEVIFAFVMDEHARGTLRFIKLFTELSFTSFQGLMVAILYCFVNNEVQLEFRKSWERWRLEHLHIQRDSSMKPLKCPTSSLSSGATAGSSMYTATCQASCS
# Columns and labels:
# Human GCG R = target: T1, Human GCG R (Homo sapiens, UniProt P47871); test: cAMP (HTRF) activity in HEK-293 cells stably overexpressing human GCG receptor; assay type: cell-based; details: EC50 of human GCG / EC50 of compound
# T1 construct: expressed in transfected cells; host or cells: HEK-293
# Protocol: (§1) By measuring the cAMP signal response levels of the aforementioned cells, the agonistic activity of individual compound towards the corresponding receptor was determined. The intracellular cAMP content was measured using reagent kit available from Cisbio Corp. based on HTRF (homogeneous time-resolved fluorescence) technology.
# (§2) The cell fluid was transferred to 10 ml of HBSS for resuspension, and centrifuged at 1000 rpm for 5 minutes at room temperature.
# (§3) 10 μL cell suspension was added to each well in the 384 well plate. […] Using the ECHO liquid transfer system, 100 nL of the prepared compound solution was added to the corresponding cell suspensions in the 384 well plate, rotated and shaken at 1000 rpm for 1 minute to mix evenly, and then incubated at room temperature for 60 minutes. 10 μL of detection reagent was added to each well after drug incubation was completed, and incubation was performed in the kit at room temperature for 60 minutes. […] GraphPad Prism 5 plotting software was used to create compound concentration response curves and EC50 (nM) values was calculated.
# Human GLP-1R = Human GLP-1R (Homo sapiens, UniProt P43220); test: cAMP (HTRF) activity in HEK-293 cells stably overexpressing human GLP-1 receptor; assay type: cell-based; set-up: expressed in transfected cells; host or cells: HEK-293; details: for Human GLP-1R Rel. A (Relative Activity): EC50 of human GLP-1 (7-37) / EC50 of compound
# Protocol: as §1, §2, §3
# 3T3-L1 adipocytes = test system: 3T3-L1 adipocytes
# Protocol: Mouse 3T3-L1 precursor adipocytes can be induced to differentiate into mature adipocytes. […] After the cells became full and contacted with each other, DMEM differentiation medium containing 20% FBS, 0.5 mM IBMX, 0.4 ug/mL dexamethasone, and 5 ug/mL insulin was used to induce differentiation of 3T3-L1 adipocyte. After 5 days of induction and cultivation, DMEM medium containing […], 4 ug/ml insulin, and 10 uM rosiglitazone was used to continue induction and cultivation for 3 days. Then, DMEM medium containing 10% FBS was used to continue cultivation for 2-3 days to induce mature 3T3-L1 adipocytes.
# The cAMP level produced by the compound on 3T3-L1 adipocytes was determined in this experiment. The tested compound solution was diluted step by step according to a concentration gradient of 3 times, to obtain a total of 10 series of concentration solutions. The solutions were added to induced mature 3T3-L1 adipocytes and incubated at room temperature for 60 minutes. 10 μL detection reagent in the kit was added to each well after drug incubation, and incubated at room temperature for another 60 minutes. […] GraphPad Prism 5 plotting software was used to create compound concentration-effect curves and calculation was performed.
# Human GIP R = target: T2, Human GIP R (Homo sapiens, UniProt P48546); test: cAMP (HTRF) activity in CHO cells stably overexpressing GIP receptor; assay type: cell-based; details: for Human GIP R Rel. A (Relative Activity): EC50 of human GIP / EC50 of compound
# T2 construct: expressed in transfected cells; host or cells: CHO
# T2 sequence (P48546 22-466): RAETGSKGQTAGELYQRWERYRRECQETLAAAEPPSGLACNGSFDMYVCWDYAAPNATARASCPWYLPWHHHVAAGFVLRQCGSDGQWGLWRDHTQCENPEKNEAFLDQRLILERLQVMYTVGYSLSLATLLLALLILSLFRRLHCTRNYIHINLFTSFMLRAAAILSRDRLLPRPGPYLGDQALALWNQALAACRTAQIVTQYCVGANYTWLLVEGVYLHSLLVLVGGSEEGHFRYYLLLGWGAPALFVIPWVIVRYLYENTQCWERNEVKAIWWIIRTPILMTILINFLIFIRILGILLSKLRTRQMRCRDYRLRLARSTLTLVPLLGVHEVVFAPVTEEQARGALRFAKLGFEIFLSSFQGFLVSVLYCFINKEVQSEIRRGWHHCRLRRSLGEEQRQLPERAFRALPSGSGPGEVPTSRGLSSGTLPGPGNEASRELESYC
# Protocol: as §1, §2, §3
# [1] = test system: human primary liver cells; assay type: cell-based; details: for EC50: cAMP, at least 3 independent tests, read-out: EC50 on human primary liver cells; for Rel. A (Relative Activity) on human primary liver cells: relative to GCG
# Protocol: The cAMP levels produced by compounds on human primary liver cells were determined in this experiment. Human primary liver cells were purchased from Lonza (cell product number HUCPG).
# Frozen human primary liver cells were placed in a 37° C. constant temperature water bath for rapid thawing and recovery. The cell solution was transferred to 10 ml of HBSS for resuspension, and centrifuged at 1000 rpm for 5 minutes at room temperature.
# (§4) 10 μL cell suspension was added to each well in the 384 well plate. […] Using the ECHO liquid transfer system, 100 nL of the prepared compound solution was added to the corresponding cell suspensions in the 384 well plate, rotated and shaken at 1000 rpm for 1 minute to mix evenly, and then incubated at room temperature for 60 minutes. 10 μL of detection reagent was added to each well after drug incubation was completed, and incubation was performed for 60 minutes.
# RIN-m5F cells = assay type: cell-based, rat; details: for EC50: cAMP, at least 3 independent tests, read-out: EC50 on RIN-m5F rat pancreatic islet tumor cells; for Rel. A (Relative Activity) on RIN-m5F: relative to GLP-1(7-37)
# Protocol: This experiment measured the cAMP level produced by the compound on RIN-mF cells.
# Frozen […] cells were placed in a 37° C. constant temperature water bath for rapid thawing and recovery. The cell solution was transferred to 10 ml of HBSS for resuspension, and centrifuged at 1000 rpm for 5 minutes at room temperature.
# as §4, with “to each wells after drug” for “to each well after drug”
Structure (SMILES),Human GCG R Rel. A (Relative Activity) (Human GCG R) [%],EC50 (Human GLP-1R) [nM],Human GLP-1R Rel. A (Relative Activity) (Human GLP-1R) [%],"EC50 (3T3-L1 adipocytes; read-out: EC50 on mouse 3T3-L1 adipocyte, cAMP, at least 3 independent tests) [nM]",Rel. A (Relative Activity) on 3T3-L1 adipocyte (3T3-L1 adipocytes; relative to GIP) [%],Human GIP R Rel. A (Relative Activity) (Human GIP R) [%],EC50 [1] [nM],Rel. A (Relative Activity) on human primary liver cells [1] [%],EC50 (RIN-m5F cells) [nM],Rel. A (Relative Activity) on RIN-m5F (RIN-m5F cells) [%],EC50 (Human GIP R) [nM]
CC[C@H](C)[C@H](NC(=O)[C@H](Cc1ccccc1)NC(=O)[C@H](C)NC(=O)C(C)(C)NC(=O)[C@H](CCC(N)=O)NC(=O)[C@H](C)NC(=O)[C@H](CCCCNC(=O)COCCOCCNC(=O)COCCOCCNC(=O)CC[C@H](NC(=O)CCCCCCCCCCCCCCCCCCC(=O)O)C(=O)O)NC(=O)[C@H](CCCCN)NC(=O)[C@H](CC(=O)O)NC(=O)[C@H](CC(C)C)NC(=O)[C@H](Cc1ccccc1)NC(=O)[C@@H](NC(=O)[C@H](CO)NC(=O)[C@H](Cc1ccc(O)cc1)NC(=O)[C@H](CC(=O)O)NC(=O)[C@H](CO)NC(=O)[C@@H](NC(=O)[C@](C)(Cc1ccccc1)NC(=O)[C@@H](NC(=O)CNC(=O)[C@H](CCC(N)=O)NC(=O)C(C)(C)NC(=O)[C@@H](N)Cc1ccc(O)cc1)[C@@H](C)O)[C@@H](C)O)[C@@H](C)CC)C(=O)N[C@@H](CCC(=O)O)C(=O)N[C@@H](Cc1ccccc1)C(=O)N[C@@H](CC(C)C)C(=O)N[C@@H](CC(C)C)C(=O)N[C@@H](CCC(=O)O)C(=O)N[C@H](C(=O)NCC(=O)N1CCC[C@H]1C(=O)N[C@@H](CO)C(=O)N[C@@H](CO)C(=O)NCC(=O)N[C@@H](C)C(=O)N1CCC[C@H]1C(=O)N1CCC[C@H]1C(=O)N1CCC[C@H]1C(=O)N[C@@H](CO)C(N)=O)[C@@H](C)O [Compound 12],13.67,0.014,314.29,5.97,63.64,220.73,–,–,–,–,–
CC[C@H](C)[C@H](NC(=O)[C@H](Cc1ccccc1)NC(=O)[C@H](C)NC(=O)C(C)(C)NC(=O)[C@H](CCC(N)=O)NC(=O)[C@H](C)NC(=O)[C@H](CCCCNC(=O)COCCOCCNC(=O)COCCOCCNC(=O)CC[C@H](NC(=O)CCCCCCCCCCCCCCCCCCC(=O)O)C(=O)O)NC(=O)[C@H](CCCCN)NC(=O)[C@H](CC(=O)O)NC(=O)[C@H](CC(C)C)NC(=O)[C@](C)(CC(C)C)NC(=O)[C@@H](NC(=O)[C@H](CO)NC(=O)[C@H](Cc1ccc(O)cc1)NC(=O)[C@H](CC(=O)O)NC(=O)[C@H](CO)NC(=O)[C@@H](NC(=O)[C@](C)(Cc1ccccc1)NC(=O)[C@@H](NC(=O)CNC(=O)[C@H](CCC(N)=O)NC(=O)C(C)(C)NC(=O)[C@@H](N)Cc1ccc(O)cc1)[C@@H](C)O)[C@@H](C)O)[C@@H](C)CC)C(=O)N[C@@H](CCC(=O)O)C(=O)N[C@@H](Cc1ccccc1)C(=O)N[C@@H](CC(C)C)C(=O)N[C@@H](CC(C)C)C(=O)N[C@@H](CCC(=O)O)C(=O)N[C@H](C(=O)NCC(=O)N1CCC[C@H]1C(=O)N[C@@H](CO)C(=O)N[C@@H](CO)C(=O)NCC(=O)N[C@@H](C)C(=O)N1CCC[C@H]1C(=O)N1CCC[C@H]1C(=O)N1CCC[C@H]1C(=O)N[C@@H](CO)C(N)=O)[C@@H](C)O [Compound 14],50.00,0.01,440.00,–,–,1645.45,4.57,85.22,0.239,431.80,0.011
CC[C@H](C)[C@H](NC(=O)[C@H](Cc1ccccc1)NC(=O)[C@H](C)NC(=O)C(C)(C)NC(=O)[C@H](CCC(N)=O)NC(=O)[C@H](C)NC(=O)[C@H](CCCCNC(=O)COCCOCCNC(=O)COCCOCCNC(=O)CC[C@H](NC(=O)CCCCCCCCCCCCCCCCCCC(=O)O)C(=O)O)NC(=O)[C@H](CCCCN)NC(=O)[C@H](CC(=O)O)NC(=O)[C@H](CC(C)C)NC(=O)[C@H](Cc1ccccc1)NC(=O)[C@@H](NC(=O)[C@H](CO)NC(=O)[C@H](Cc1ccc(O)cc1)NC(=O)[C@H](CC(=O)O)NC(=O)[C@H](CO)NC(=O)[C@@H](NC(=O)[C@](C)(Cc1ccccc1)NC(=O)[C@@H](NC(=O)CNC(=O)[C@H](CCC(N)=O)NC(=O)C(C)(C)NC(=O)[C@@H](N)Cc1ccc(O)cc1)[C@@H](C)O)[C@@H](C)O)[C@@H](C)CC)C(=O)N[C@@H](CCC(=O)O)C(=O)N[C@@H](Cc1ccccc1)C(=O)N[C@@H](CC(C)C)C(=O)N[C@@H](CC(C)C)C(=O)N[C@@H](CCC(=O)O)C(=O)N[C@@H](CO)C(=O)N[C@@H](Cc1c[nH]cn1)C(=O)N1CCC[C@H]1C(=O)N[C@@H](CO)C(=O)N[C@@H](CO)C(=O)NCC(=O)N[C@@H](C)C(=O)N1CCC[C@H]1C(=O)N1CCC[C@H]1C(=O)N1CCC[C@H]1C(=O)N[C@@H](CO)C(N)=O [Compound 15],41.01,0.023,191.30,–,–,548.48,7.22,53.92,0.694,148.70,–
CC[C@H](C)[C@H](NC(=O)[C@H](Cc1ccccc1)NC(=O)[C@H](C)NC(=O)C(C)(C)NC(=O)[C@H](CCC(N)=O)NC(=O)[C@H](C)NC(=O)[C@H](CCCCNC(=O)COCCOCCNC(=O)COCCOCCNC(=O)CC[C@H](NC(=O)CCCCCCCCCCCCCCCCCCC(=O)O)C(=O)O)NC(=O)[C@H](CCCCN)NC(=O)[C@H](CC(=O)O)NC(=O)[C@H](CC(C)C)NC(=O)[C@H](Cc1ccccc1)NC(=O)[C@@H](NC(=O)[C@H](CO)NC(=O)[C@H](Cc1ccc(O)cc1)NC(=O)[C@H](CC(=O)O)NC(=O)[C@H](CO)NC(=O)[C@@H](NC(=O)[C@](C)(Cc1ccccc1)NC(=O)[C@@H](NC(=O)CNC(=O)[C@H](CCC(N)=O)NC(=O)C(C)(C)NC(=O)[C@@H](N)Cc1ccc(O)cc1)[C@@H](C)O)[C@@H](C)O)[C@@H](C)CC)C(=O)N[C@@H](CCC(=O)O)C(=O)N[C@@H](Cc1ccccc1)C(=O)N[C@@H](CC(C)C)C(=O)N[C@@H](CC(C)C)C(=O)N[C@@H](CCC(=O)O)C(=O)NC(C)(C)C(=O)N[C@@H](Cc1c[nH]cn1)C(=O)N1CCC[C@H]1C(=O)N[C@@H](CO)C(=O)N[C@@H](CO)C(=O)NCC(=O)N[C@@H](C)C(=O)N1CCC[C@H]1C(=O)N1CCC[C@H]1C(=O)N1CCC[C@H]1C(=O)N[C@@H](CO)C(N)=O [Compound 16],33.93,0.02,220.00,–,–,335.19,–,–,–,–,–
